Results: US12258389B2, “Methods and compositions for inhibition of EGF/EGFR pathway in combination with tyrosine kinase inhibitors” (In3Bio Ltd., priority 2015, dated 2025)

Tested on: p-EGFR
Assay: Western blot, phosphorylated EGFR normalised to total EGFR, PC9 cells
Format: cell-based, human
Conditions: PC9, 24 h serum starvation and drug treatment; gefitinib 0.5 μM, Ab 1/2; Control = 100
Procedure: Experiment 1: In a typical standard experiment, five T-75 flasks of the cell line under study were cultured to approximately 70% confluence, washed twice with PBS and grown o/n in serum-free medium. The serum-starved cells were then washed again and treated as follows:
Treatment was for about 15 minutes.
Experiment 2: In a second experiment anti-EGF was tested only at 1 to 2 dilution. […] Treatment was prolonged to about 2 hours in this experiment.
Both EGF and anti-EGF antibodies, which used in this project were derived from an immunization study in monkeys that received 4 immunizations of the rEGF-rP64k conjugate CIMAvax-EGF vaccine formulated with Montanide adjuvant. The vaccine and resulting anti-EGF antibodies were provided by Bioven (Europe) Ltd, Cruikshank Building North, Aberdeen Biotechnology, Craibstone Aberdeen, U.K. Scotland. Antibodies for Western blotting were purchased from Santa Cruz Biotechnologies (Palo Alto, CA).
Experiment 3: In a third experiment anti-EGF was tested only at 1 to 2 dilution. […] Treatment was prolonged to about 2 hours in this experiment. […] Both EGF and anti-EGF were provided by Bioven. Antibodies for Western blotting were purchased from Santa Cruz Biotechnologies (Palo Alto, CA).
Subsequently, three kind of experiments were performed:
C. […]

## COc1cc2ncnc(Nc3ccc(F)c(Cl)c3)c2cc1OCCCN1CCOCC1 [Gefitinib]
  pEGFR: 25.5
